The record followed here is PubChem BioAssay (NCI).

Where “and” joins values, the source holds several entries; their conditions need not be identical. Equal entries are not always repeated. Only a part is listed here, and it is no random draw. Some results for these compounds are left out of this collection, so the calls shown say nothing about other tests. Where a structure was tested more than once in an assay, its records may differ in their call. Calls of active or inactive are those of the source. Cut-off read from the data, not from the text of the source: active = growth inhibition above about 70%; inactive = the rest.

Assay [1] can be described thus: NCI Yeast Anticancer Drug Screen. Data for the rad50 strain (AID 155).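 Note: 0% = growth of vehicle-only cultures of the same strain.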 To be noted: S. cerevisiae rad50 strain growth inhibition, hits give high values.
A short description of assay [2]: NCI Yeast Anticancer Drug Screen. Data for the mec2-1 strain (AID 157). The note with it: S. cerevisiae mec2-1 strain, hits give high values.
Assay [3] in a line: NCI Yeast Anticancer Drug Screen. Data for the sgs1 mgt1 strain (AID 161).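 Note: 0% = growth of cultures given vehicle only.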 The note with it: S. cerevisiae sgs1 mgt1 strain, hits give high values.
Assay [4] in a line: NCI Yeast Anticancer Drug Screen. Data for the cln2 rad14 strain (AID 165).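 Note: 0% = growth equal to vehicle treated cultures.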 To be noted: S. cerevisiae cln2 rad14 strain, hits give high values.
Assay [5] can be described thus: NCI Yeast Anticancer Drug Screen. Data for the bub3 strain (AID 167). The note with it: S. cerevisiae bub3 mutant strain, hits give high values.
The nature of assay [6]: NCI Yeast Anticancer Drug Screen. Data for the mlh1 rad18 strain (AID 175). The note with it: S. cerevisiae mlh1 rad18 strain growth inhibition, hits give high values.
The mark [7] stands for this setting: at 5.0 µM (retest, dose inferred, filed as 0.5).
Where [8] appears, read: at 50.0 µM (retest, dose inferred, filed as 5.0).

`C#CC(O)(C(=O)OC1CN2CCC1CC2)c1ccccc1` (stereo unspecified): the growth inhibition in assay [1] (at 50.0 µM) is inactive: -8.45%; in assay [2] (at 50.0 µM), inactive: 4.65%; in assay [3] (at 50.0 µM), inactive: 2.35%; in assay [4] (at 50.0 µM), inactive: -0.7%; in assay [5] (at 50.0 µM), inactive: 0.05%; in assay [6] (at 50.0 µM), inactive: 9.95%.

As for `C/C=C\C(O)(C(=O)OC1CN2CCC1CC2)C1CCCCC1` (stereo unspecified), the growth inhibition in assay [1] (at 50.0 µM) is inactive: 50.8%; in assay [2] (at 50.0 µM) it was inactive: 31%; in assay [3] (at 50.0 µM) it was inactive: 51%; in assay [4] (at 50.0 µM), inactive: 35.6%; in assay [5] (at 50.0 µM), inactive: 41.8%; in assay [6] (at 50.0 µM) it was inactive: 56.6%.

In the case of `N#CC(C#N)=Cc1ccccc1Cl`, the growth inhibition in assay [1] (at 50.0 µM) was inactive: 15.8% and inactive: 8.45%; in assay [2] (at 50.0 µM) it was inactive: 18.1% and inactive: -7.65%; in assay [3] (at 50.0 µM) it was inactive: -3.85% and inactive: -14.7%; in assay [4] (at 50.0 µM) it was inactive: 23.4% and inactive: -12.6%; in assay [5] (at 50.0 µM), inactive: 10.1% and inactive: -0.05%; in assay [6] (at 50.0 µM) it was inactive: 17.9% and inactive: 26.1%.

Regarding `CN1CCC(OC(=O)C2(O)c3ccccc3Oc3ccccc32)CC1`, the growth inhibition in assay [1] (at 50.0 µM) was inactive: -28.4%; in assay [2] (at 50.0 µM), inactive: -18.9%; in assay [3] (at 50.0 µM) it was inactive: -6.6%; in assay [4] (at 50.0 µM) it was inactive: -11.4%; in assay [5] (at 50.0 µM), inactive: -11%; in assay [6] (at 50.0 µM), inactive: -40.2%.

On to `CC(C)C(O)(C(=O)OC1CCNCC1)c1ccccc1` (stereo unspecified), for which the growth inhibition in assay [1] (at 50.0 µM) is inactive: -7.6%; in assay [2] (at 50.0 µM), inactive: 0.65%; in assay [3] (at 50.0 µM), inactive: -2.05%; in assay [4] (at 50.0 µM) it was inactive: -1%; in assay [5] (at 50.0 µM), inactive: 9.25%; in assay [6] (at 50.0 µM) it was inactive: 1.4%.

Consider `ClCCN(CCCl)C1CCCc2ccccc21` (stereo unspecified), for which the growth inhibition in assay [1] (at 50.0 µM) is inactive: 12.9%; in assay [2] (at 50.0 µM), inactive: -17.4%; in assay [3] (at 50.0 µM), inactive: 8.8%; in assay [4] (at 50.0 µM), inactive: 20.2%; in assay [5] (at 50.0 µM), inactive: 6.6%; in assay [6] (at 50.0 µM), inactive: -12.8%.

Turning to `O=C(CCCN1CCC(OC(=O)C(O)(c2ccccc2)C2CCCC2)CC1)c1ccccc1` (stereo unspecified), the growth inhibition in assay [1] (setting [7]) is inactive: 33%; in assay [1] (setting [8]) it was active: 96%; in assay [1] (at 50.0 µM), inactive: 56.9%; in assay [2] (setting [7]), inactive: 24%; in assay [2] (setting [8]), active: 93%; in assay [2] (at 50.0 µM) it was inactive: 46.6%. Also, the growth inhibition in assay [3] (setting [7]) was inactive: 29%; in assay [3] (setting [8]) it was active: 96%; in assay [3] (at 50.0 µM), inactive: 65.7%; in assay [4] (setting [7]), inactive: 16%; in assay [4] (setting [8]), active: 97%; in assay [4] (at 50.0 µM) it was active: 79.3%. Besides, the growth inhibition in assay [5] (setting [7]) is inactive: 9%; in assay [5] (setting [8]), active: 97%; in assay [5] (at 50.0 µM), active: 76.8%; in assay [6] (setting [7]), inactive: 34%; in assay [6] (setting [8]) it was active: 97%; in assay [6] (at 50.0 µM), active: 88.8%.

For `CN1CCCC(O)C1COC(=O)C(O)(c1ccccc1)c1ccccc1` (stereo unspecified), the growth inhibition in assay [1] (at 50.0 µM) is inactive: 9.25%; in assay [2] (at 50.0 µM), inactive: -3.7%; in assay [3] (at 50.0 µM) it was inactive: 14%; in assay [4] (at 50.0 µM), inactive: -15.2%; in assay [5] (at 50.0 µM), inactive: 3.25%; in assay [6] (at 50.0 µM), inactive: 16.6%.

Take `C/C=C\C(O)(C(=O)OC1CCN(C)CC1)C1CCCCC1` (stereo unspecified): the growth inhibition in assay [1] (at 50.0 µM) is inactive: 51.8%; in assay [2] (at 50.0 µM), inactive: 24.1%; in assay [3] (at 50.0 µM), inactive: 49.8%; in assay [4] (at 50.0 µM), inactive: 29.3%; in assay [5] (at 50.0 µM), inactive: 34.7%; in assay [6] (at 50.0 µM), inactive: 51.2%.

In the case of `CN1CCC(OC(=O)C(O)(c2ccccc2)C2CCCC2)C1` (stereo unspecified), the growth inhibition is inactive: -7.05% in assay [1] (at 50.0 µM); inactive: -19.6% in assay [2] (at 50.0 µM); inactive: -2.75% in assay [3] (at 50.0 µM); inactive: -8.5% in assay [4] (at 50.0 µM); inactive: -15.7% in assay [5] (at 50.0 µM); inactive: 9.15% in assay [6] (at 50.0 µM).

Take `CCCC#CC(O)(C(=O)OC1CN2CCC1CC2)C1CCCC1` (stereo unspecified): the growth inhibition was inactive: 27.1% in assay [1] (at 50.0 µM); inactive: 27.8% in assay [2] (at 50.0 µM); inactive: 33.5% in assay [3] (at 50.0 µM); inactive: 15.2% in assay [4] (at 50.0 µM); inactive: 25.1% in assay [5] (at 50.0 µM); inactive: 26.4% in assay [6] (at 50.0 µM).

Consider `O=C(OC1CCN2CCCC12)C(O)(c1ccccc1)c1ccccc1` (stereo unspecified), for which the growth inhibition in assay [1] (at 50.0 µM) was inactive: 4.15%; in assay [2] (at 50.0 µM) it was inactive: -4.65%; in assay [3] (at 50.0 µM), inactive: -0.55%; in assay [4] (at 50.0 µM), inactive: -4.7%; in assay [5] (at 50.0 µM), inactive: -12.3%; in assay [6] (at 50.0 µM), inactive: -17.9%.

With `N#CC(C#N)=Cc1ccc(Br)cc1`, the growth inhibition in assay [1] (at 50.0 µM) is inactive: 4.7% and inactive: 21.2%; in assay [2] (at 50.0 µM), inactive: 15.8% and inactive: 0.6%; in assay [3] (at 50.0 µM), inactive: 19.9% and inactive: -3.6%; in assay [4] (at 50.0 µM), inactive: 10.9% and inactive: 2.6%; in assay [5] (at 50.0 µM), inactive: 22.4% and inactive: 0.55%; in assay [6] (at 50.0 µM) it was inactive: 24.8% and inactive: 38.3%.

As to `CCN(CCCl)CC1CCCCC1`, the growth inhibition in assay [1] (setting [7]) was inactive: 2%; in assay [1] (setting [8]), inactive: 3%; in assay [1] (at 50.0 µM) it was inactive: 2.75% and inactive: -21.9%; in assay [2] (setting [7]) it was inactive: -4%; in assay [2] (setting [8]), inactive: 3%; in assay [2] (at 50.0 µM), inactive: -14.1% and inactive: -8.65%. Moreover, the growth inhibition in assay [3] (setting [7]) is inactive: -1%; in assay [3] (setting [8]), inactive: -5%; in assay [3] (at 50.0 µM), inactive: 0.15% and inactive: -3.5%; in assay [4] (setting [7]), inactive: -2%; in assay [4] (setting [8]) it was inactive: 3%; in assay [4] (at 50.0 µM) it was inactive: -18.1% and inactive: 28.1%. In addition, the growth inhibition in assay [5] (setting [7]) is inactive: 4%; in assay [5] (setting [8]), inactive: 11%; in assay [5] (at 50.0 µM) it was inactive: -13.7% and inactive: -9%; in assay [6] (setting [7]), inactive: 4%; in assay [6] (setting [8]), inactive: 6%; in assay [6] (at 50.0 µM) it was inactive: 14.8% and inactive: 6.5%.

As for `CCNCCCl`, the growth inhibition was inactive: 5.35% in assay [1] (at 50.0 µM); inactive: 3.4% in assay [2] (at 50.0 µM); inactive: 3.7% in assay [3] (at 50.0 µM); inactive: 13.6% in assay [4] (at 50.0 µM); inactive: 22.4% in assay [5] (at 50.0 µM); inactive: -12.1% in assay [6] (at 50.0 µM).

Consider `CC(C)/C=C\C(O)(C(=O)OC1CN2CCC1CC2)C1CCCC1` (stereo unspecified), for which the growth inhibition in assay [1] (at 50.0 µM) is inactive: 47.5%; in assay [2] (at 50.0 µM) it was inactive: 30.6%; in assay [3] (at 50.0 µM) it was inactive: 46.8%; in assay [4] (at 50.0 µM), inactive: 35.4%; in assay [5] (at 50.0 µM) it was inactive: 41.6%; in assay [6] (at 50.0 µM) it was inactive: 32.4%.

In the case of `CC#CC(O)(C(=O)OC1CCN(C)C1)c1ccccc1` (stereo unspecified), the growth inhibition in assay [1] (at 50.0 µM) is inactive: -10.1%; in assay [2] (at 50.0 µM) it was inactive: -27.9%; in assay [3] (at 50.0 µM), inactive: 9.25%; in assay [4] (at 50.0 µM), inactive: 5.1%; in assay [5] (at 50.0 µM) it was inactive: 7.05%; in assay [6] (at 50.0 µM), inactive: -50.8%.
